Sequences of proteins named here, by UniProt entry; tags and fusion partners are left off. Residues count along the entry.
UniProt P43220, 24-463: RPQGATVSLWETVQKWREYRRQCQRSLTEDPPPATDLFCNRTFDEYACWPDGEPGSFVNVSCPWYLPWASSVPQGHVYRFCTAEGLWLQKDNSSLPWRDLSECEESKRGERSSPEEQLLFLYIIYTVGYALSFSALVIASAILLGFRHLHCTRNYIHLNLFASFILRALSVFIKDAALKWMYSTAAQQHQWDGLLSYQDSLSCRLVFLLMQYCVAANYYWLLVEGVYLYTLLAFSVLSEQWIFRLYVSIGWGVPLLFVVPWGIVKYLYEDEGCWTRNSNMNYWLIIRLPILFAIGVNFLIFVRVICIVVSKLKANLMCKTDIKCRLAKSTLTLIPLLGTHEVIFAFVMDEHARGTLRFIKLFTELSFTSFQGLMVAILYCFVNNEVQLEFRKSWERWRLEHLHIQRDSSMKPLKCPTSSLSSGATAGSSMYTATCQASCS

In patent US7989585B2, “Chronic treatment regimen using glucagon-like insulinotropic peptides” (Eli Lilly and Company, priority 2000, dated 2011):

Molecular target: T1, human GLP-1 receptor (Homo sapiens, UniProt P43220)
T1 construct: expressed in transfected cells; host or cells: HEK-293 Aurora CRE-BLAM cells
Assay: In vitro potency assay (CRE-BLAM fluorescence assay)
Format: cell-based
Details: from EC50, HEK-293 Aurora CRE-BLAM cells; Val^8-GLP-1(7-37)OH control = 1
Source text: The assay is discussed in more detail on page 17 and in example 3.
These HEK-293 cells have stably integrated a DNA vector having a cAMP response element (CRE) driving expression of the β-lactamase (BLAM) gene. […] The assay is further described in Zlokarnik, et al. (1998) Science 279:84-88 (See also Example 3).
The day after seeding, the medium is replaced with plasma free medium.

GLP-1(7-36)NH2 [reference compound]
In vitro activity relative to Val^8-GLP-1(7-37)OH: 1.50
